How the values were obtained:
[1] = target: Delta-type opioid receptor (Mus musculus) (UniProt P32300); assay: Equilibrium constant, ratio of IC50 for delta opioid receptor in ddy mouse vas deferens in presence of 10 nM Naltrindole to IC50 for delta opioid receptor in ddy mouse vas deferens
[2] = target: Opioid receptor (mu and kappa) (Cavia porcellus) (UniProt P41144+P97266); assay: Selectivity ratio of Ke for mu opioid receptor in guinea pig ileum to Ke for kappa opioid receptor in guinea pig ileum
Mus musculus [3] = species: Mus musculus; assay: Selectivity ratio of Ke for delta opioid receptor in ddy mouse vas deferens to Ke for kappa opioid receptor in ddy mouse vas deferens
[4] = target: Kappa-type opioid receptor (Cavia porcellus) (UniProt P41144); assay: Equilibrium constant, ratio of IC50 for kappa opioid receptor in guinea pig ileum in presence of 10 nM nor-BNI to IC50 for kappa opioid receptor in guinea pig ileum
[5] = target: Kappa-type opioid receptor (Mus musculus) (UniProt P33534); assay: Equilibrium constant, ratio of IC50 for kappa opioid receptor in ddy mouse vas deferens in presence of 1 nM nor-BNI to IC50 for kappa opioid receptor in ddy mouse vas deferens
Cavia porcellus = species: Cavia porcellus; assay: Equilibrium constant, ratio of IC50 for mu opioid receptor in guinea pig ileum in presence of 100 nM Naloxone to IC50 for mu opioid receptor in guinea pig ileum
Mus musculus [6] = species: Mus musculus; assay: Selectivity ratio of Ke for mu opioid receptor in ddy mouse vas deferens to Ke for kappa opioid receptor in ddy mouse vas deferens
[7] = target: Mu-type opioid receptor (Mus musculus) (UniProt P42866); assay: Equilibrium constant, ratio of IC50 for mu opioid receptor in ddy mouse vas deferens in presence of 100 nM naloxone to IC50 for mu opioid receptor in ddy mouse vas deferens

Sequences of proteins named here, by UniProt entry; tags and fusion partners are left off. A change or cut given only in a name is not applied to a line headed by its entry.
UniProt P32300, whole entry, looked up: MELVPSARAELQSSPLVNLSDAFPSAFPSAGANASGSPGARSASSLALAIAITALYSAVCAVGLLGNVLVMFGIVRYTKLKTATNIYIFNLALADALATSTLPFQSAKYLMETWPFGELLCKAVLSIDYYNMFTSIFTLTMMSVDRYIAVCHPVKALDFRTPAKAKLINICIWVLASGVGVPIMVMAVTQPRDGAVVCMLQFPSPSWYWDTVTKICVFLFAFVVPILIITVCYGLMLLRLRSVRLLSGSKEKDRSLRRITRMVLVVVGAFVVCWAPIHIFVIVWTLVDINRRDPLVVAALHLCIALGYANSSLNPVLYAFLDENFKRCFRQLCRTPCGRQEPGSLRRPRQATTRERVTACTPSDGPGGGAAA
UniProt P41144: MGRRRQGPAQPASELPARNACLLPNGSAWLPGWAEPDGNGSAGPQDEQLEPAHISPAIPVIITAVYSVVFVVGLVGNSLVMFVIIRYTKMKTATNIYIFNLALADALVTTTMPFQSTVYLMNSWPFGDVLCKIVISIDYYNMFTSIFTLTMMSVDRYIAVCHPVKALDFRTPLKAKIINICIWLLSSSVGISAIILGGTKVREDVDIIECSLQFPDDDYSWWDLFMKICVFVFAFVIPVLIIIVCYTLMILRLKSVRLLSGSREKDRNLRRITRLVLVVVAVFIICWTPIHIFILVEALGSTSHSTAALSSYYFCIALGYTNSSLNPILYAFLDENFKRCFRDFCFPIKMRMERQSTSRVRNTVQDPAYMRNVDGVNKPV
UniProt P97266, whole entry, looked up: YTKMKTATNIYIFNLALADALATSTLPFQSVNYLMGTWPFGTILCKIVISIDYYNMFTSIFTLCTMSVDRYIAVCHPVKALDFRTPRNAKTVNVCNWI
UniProt P42866, whole entry, looked up: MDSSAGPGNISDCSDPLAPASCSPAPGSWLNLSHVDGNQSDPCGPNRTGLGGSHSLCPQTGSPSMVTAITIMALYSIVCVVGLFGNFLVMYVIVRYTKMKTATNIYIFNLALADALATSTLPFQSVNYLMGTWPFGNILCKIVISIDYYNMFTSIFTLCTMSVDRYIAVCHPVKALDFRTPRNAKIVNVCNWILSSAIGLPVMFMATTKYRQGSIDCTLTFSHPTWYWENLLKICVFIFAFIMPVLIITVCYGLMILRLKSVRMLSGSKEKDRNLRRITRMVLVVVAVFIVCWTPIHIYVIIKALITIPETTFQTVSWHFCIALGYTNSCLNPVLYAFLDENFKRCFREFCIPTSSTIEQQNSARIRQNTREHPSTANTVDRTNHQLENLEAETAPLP

CN(C(=O)Cc1ccc(Cl)c(Cl)c1)C1CCCCC1N1CCCC1 (stereo not drawn)
Ke [1]: 41.2 nM
Ratio [2]: 390
Ratio (Mus musculus [3]): 1330
Ke [4]: 0.031 nM
Ke [5]: 0.031 nM
Ke (Cavia porcellus): 12.1 nM
Ratio (Mus musculus [6]): 1020
Ke [7]: 31.5 nM

From ChEMBL document CHEMBL1142487, “Design, synthesis, and structure-activity relationship of novel opioid kappa-agonists” (Bioorg Med Chem, 2008)
